Values of other authors as cited in publication PMC2751796 (Pharmacology & therapeutics, 2009).

Key:
[1] = tested on: P-gp; details: mouse, in vivo; cited from earlier work
[2] = tested on: P-gp; details: mouse, in vivo; cited from earlier work; remark: listed apart in the source

## Cc1nc2n(c(=O)c1CCN1CCC(c3noc4cc(F)ccc34)CC1)CCCC2 [Risperidone]
[1]
  Fold change in brain uptake ratio in P-gp KO vs. control mice: 10.3 (10.5), AUC fold and 13.6 (14.1), Conc. fold
  Fold change in brain uptake ratio in P-gp KO vs. control mice (value corrected for drug in vasculature): 10.3 (10.5), AUC fold and 13.6 (14.1), Conc. fold
[2]
  Fold change in brain uptake ratio in inhibitor-treated vs. control mice: 1, AUC fold and 1.4, AUC fold

Where “and” joins values, the source holds several entries; their conditions need not be identical. Equal values may be shown once.
